The series relates to Gottingen Minipigs. Put plainly: 4-week dermal toxicity study in Gottingen Minipigs. The note with it: minipig NOAEL dose vs initial clinical dose (5 μg/mL × 1 mL × 2×/day, 60 kg). The procedure: Observations for morbidity, mortality, injury, and the availability of food and water were conducted twice daily for all animals. Clinical observations were conducted weekly.

Regarding `C=C1/C(=C\C=C2/CCC[C@]3(C)[C@@H]([C@H](C)CCCC(C)(C)O)CC[C@@H]23)C[C@@H](O)C[C@@H]1O` [Calcitriol, (5Z,7E)-9,10-secocholesta-5,7.10(19Hriene-1 a,33.25-triol], the “margin of safety (MOS)” value was determined as 20.

The values above are taken from patent US20230302022A1, “PREVENTING OR MITIGATING CHEMOTHERAPY INDUCED ALOPECIA USING VITAMIN D” (priority 2016, published 2023).
